{"source": "paper PMC3111596", "about": "(Biochemistry, 2011)", "type": "physicochemical", "conditions": "50 mM Tris-HCl pH 7.5, 100 mM NaCl, 35 mM β-mercaptoethanol", "data": [{"substance": "tetrahydrofolate [THF]", "values": [{"measurement": "Time protected from oxidation", "value": "≥ 6", "unit": "h"}]}]}
